Apparent affinities of Ab-95 variants for a coronavirus HR2 peptide

From the AlphaSeq antibody data of Engelhart et al. 2022 (doi:10.1038/s41597-022-01779-4), copy in the FLAb collection.

All variants were tested on one target, the spike HR2 peptide PDVDLGDISGINAS (SARS-CoV-2).

Parent: Ab-95, a human scFv built as VH, three GGGGS repeats, VL. Only the CDRs of the light chain vary.
VH: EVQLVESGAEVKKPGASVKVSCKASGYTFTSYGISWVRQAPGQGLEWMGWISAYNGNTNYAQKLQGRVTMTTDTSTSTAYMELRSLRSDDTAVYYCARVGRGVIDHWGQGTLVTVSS
VL: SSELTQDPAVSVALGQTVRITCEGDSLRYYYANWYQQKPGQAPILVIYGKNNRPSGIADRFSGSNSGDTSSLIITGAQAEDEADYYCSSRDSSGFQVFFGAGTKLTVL

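The starting antibody came from a phage panning campaign against this peptide. Variants in AAYL52 differ from the parent at up to three CDR positions; double and triple changes were sampled at random. In AlphaSeq, yeast of one mating type display the scFv and yeast of the other type display the target. Pairs that bind mate more often; barcode pairs of the diploids are counted by sequencing. The ratio of observed to expected reads was calibrated, replicate by replicate, on BCL2-family standards whose Kd was known from biolayer interferometry. Mating was done three times.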

The parent's light chain CDRs are EGDSLRYYYAN, GKNNRPS, SSRDSSGFQVF; each variant's own CDRs replace them letter for letter.
Numbers give log10(Kd / nM), so 0 is 1 nM and 3 is 1 µM. Smaller is tighter.
Replicates are averaged; those with no signal do not enter the mean.
"ND" means that the variant was in the library but no mating with the target was seen in that replicate; the authors take this as a sign of poor binding, and no number exists.

CDR-L1,CDR-L2,CDR-L3,"replicates, log10 nM","mean, log10 nM",control signals
EEYSLRYYYIN,GKNNRPS,SSRDSSGFQVF,ND 5.12 ND,5.12,2 of 9 (3.85)
GGDSLRYYYAN,GKNNRPS,HSRDSSGFSVF,2.32 1.95 2.03,2.10,3 of 9 (3.89)
EGDSRRYYYAN,GKNNTPS,SSRDSSGFKVF,3.34 2.72 ND,3.03,4 of 9 (4.52)
EGDSQRYYYAN,GKNNRPS,SSVDSPGFQVF,4.11 ND ND,4.11,1 of 9 (3.03)
EGDHLRYYYAN,GKNNRPS,SWRDKSGFQVF,ND 2.82 ND,2.82,5 of 9 (3.51)
EGDELRYYYAN,GKNNRPS,NSRDSSGFKVF,ND ND ND,ND,2 of 9 (4.46)
EGDKLRYYYAN,GKNNRPS,SSRDSKGFQTF,ND ND 3.19,3.19,0 of 9
YGDSLRYYYAN,GKNNRIS,SSRDSLGFQVF,ND ND ND,ND,4 of 9 (3.29)
EGLSLRYYYAN,GKNNRPS,SSSDSNGFQVF,2.87 2.90 4.06,3.28,1 of 9 (3.77)
EGDSLRYDYAM,GKNNRPS,ISRDSSGFQVF,4.42 2.98 ND,3.70,2 of 9 (3.94)
EGDSLRYYYAN,GKANRPS,SKRDSSGFQVY,4.09 2.82 ND,3.45,0 of 9
EDDSLRYKYAN,GKPNRPS,SSRDSSGFQVF,ND ND 3.25,3.25,2 of 9 (4.03)
EGDSLRYYYAN,GKNFRPS,SSRDSHGFQVF,3.17 2.65 3.38,3.06,1 of 9 (3.87)
EGDSLRYVMAN,GKNNRPS,SSRDSSGFQVF,2.08 2.20 1.23,1.84,0 of 9
EGDSLRYYYAN,GKHNFPS,SSRDSSGFQLF,ND ND ND,ND,3 of 9 (4.34)
EGDSLRYYYAN,GKNNRPN,SSRDSSWRQVF,ND 4.79 3.35,4.07,2 of 9 (2.61)
EGDSLRYYYAN,GKNNSPS,SSNDSSGNQVF,2.58 3.41 2.62,2.87,1 of 9 (3.06)
EGDSLYYYSAN,GKNNRPS,SSRLSSGFQVF,2.15 1.94 1.67,1.92,3 of 9 (4.05)
QGQSLRYYYAN,GKNNRPW,SSRDSSGFQVF,1.91 2.70 1.96,2.19,1 of 9 (2.86)
EGDSLRYYYAN,GKLNRPS,SSRDSSSFQLF,5.16 3.05 ND,4.10,2 of 9 (3.51)
EGDSERYYYAN,GKNNEPS,SSRDSSCFQVF,ND ND ND,ND,2 of 9 (3.29)
EGDSLRYYYIN,VKNNRPS,SSRTSSGFQVF,4.55 3.48 ND,4.01,2 of 9 (4.04)
EGDSLRYYYAN,GMNNRPV,SSRDSSGFQVK,3.07 3.37 2.94,3.13,1 of 9 (3.66)
EGDSLRPYYNN,GKNNGPS,SSRDSSGFQVF,ND ND ND,ND,1 of 9 (3.67)
EGDSLQYYYAR,GKNNRPS,SSVDSSGFQVF,3.52 5.10 ND,4.31,0 of 9
EGDSYRYYYAD,DKNNRPS,SSRDSSGFQVF,2.76 4.90 ND,3.83,2 of 9 (4.23)
EGDSLRYYYAN,GKVNRPS,SSRWSSRFQVF,4.58 2.72 ND,3.65,3 of 9 (3.47)
EGDELRYYYAN,GKNNRTS,SSRDSSGCQVF,ND ND ND,ND,2 of 9 (3.99)
EGDSLRYYYAN,GKNNRPS,SFRDTSGFEVF,3.53 3.78 3.98,3.76,6 of 9 (4.38)
EGDELRYYYAN,GKNNRPS,SSRDSSGVSVF,ND 5.47 ND,5.47,1 of 9 (5.39)
EGDSLRYYYAN,GKNNEPT,SSRRSSGFQVF,4.12 ND ND,4.12,1 of 9 (3.74)
EGDSLDYYYRN,AKNNRPS,SSRDSSGFQVF,ND 5.64 ND,5.64,2 of 9 (4.20)
EGDSLRYYYAN,GKNNRPS,KSRMSSDFQVF,2.28 2.40 2.58,2.42,1 of 9 (3.25)
EGDMVRYYYAC,GKNNRPS,SSRDSSGFQVF,3.29 ND ND,3.29,5 of 9 (4.42)
EGDSLRYYYSN,GKINRES,SSRDSSGFQVF,4.53 ND ND,4.53,5 of 9 (4.11)
VPDSLRYYYAN,GKNNDPS,SSRDSSGFQVF,ND ND 3.86,3.86,1 of 9 (3.18)
EEDSLPYYYAN,GSNNRPS,SSRDSSGFQVF,ND 3.17 ND,3.17,3 of 9 (3.87)
EGDSLRYYYAN,GKNNRPP,SSHDSSYFQVF,3.21 ND 3.86,3.53,2 of 9 (3.54)
EGDSLRYYYAN,NKNNRPS,SSLDSSVFQVF,ND 3.32 ND,3.32,0 of 9
EGDSLRYYYCN,GKNNRPS,SSRDSSGFQVF,2.12 2.00 1.36,1.83,2 of 9 (3.81)
EGDSLRYYYHN,GKNNRPG,SSRSSSGFQVF,2.90 2.81 1.93,2.55,3 of 9 (3.77)
EGDALRYYSAN,GKNNRPS,SSRDSSGFQAF,1.53 1.28 0.87,1.23,5 of 9 (4.20)
YRDSLRYYYAN,GKNNRPS,SSRDSSGFHVF,2.45 2.40 2.95,2.60,5 of 9 (3.77)
EGDSLQYYYAN,GKNNRPN,DSRDSSGFQVF,3.17 2.59 1.83,2.53,1 of 9 (3.20)
EGDKLRYYYAN,GKNIRPS,SSRPSSGFQVF,3.06 3.43 ND,3.24,3 of 9 (3.90)

Repeated from above, the 7 best binders with a signal in all replicates:

CDR-L1,CDR-L2,CDR-L3,"replicates, log10 nM","mean, log10 nM",control signals
EGDALRYYSAN,GKNNRPS,SSRDSSGFQAF,1.53 1.28 0.87,1.23,5 of 9 (4.20)
EGDSLRYYYCN,GKNNRPS,SSRDSSGFQVF,2.12 2.00 1.36,1.83,2 of 9 (3.81)
EGDSLRYVMAN,GKNNRPS,SSRDSSGFQVF,2.08 2.20 1.23,1.84,0 of 9
EGDSLYYYSAN,GKNNRPS,SSRLSSGFQVF,2.15 1.94 1.67,1.92,3 of 9 (4.05)
GGDSLRYYYAN,GKNNRPS,HSRDSSGFSVF,2.32 1.95 2.03,2.10,3 of 9 (3.89)
QGQSLRYYYAN,GKNNRPW,SSRDSSGFQVF,1.91 2.70 1.96,2.19,1 of 9 (2.86)
EGDSLRYYYAN,GKNNRPS,KSRMSSDFQVF,2.28 2.40 2.58,2.42,1 of 9 (3.25)

Nonspecific signal, from three strains lacking the peptide, appeared in 28% of pairings of library AAYL52, centred on 3.91 (5% of these signals below 2.90); values are not corrected for it. The control count says in how many pairings with the empty strains this scFv gave a signal, with their mean in brackets.
Parent in this assay: reference entry 2.31, copy in this library 2.25.